{"source": "patent US3962447A", "about": "“Novel pro-drug derivatives of pyridinium aldoxime type cholinesterase reactivators and method of using same” (dated 1976)", "key": {"[1]": {"system": "cholinesterase in the brain", "conditions": "100 mg/kg I.P., rat, after intoxication in vivo by Sarin; cited from earlier work"}, "[2]": {"system": "patients intoxicated by Parathion", "conditions": "cited from earlier work"}, "[3]": {"system": "lethal effects of paraoxon", "conditions": "test animals, in words; cited from earlier work"}, "[4]": {"system": "toxic effect of a nerve agent, such as G.B. (Sarin)", "conditions": "man, cited from earlier work"}, "[5]": {"conditions": "cited from earlier work"}, "[6]": {"conditions": "rat, within ten minutes after administration; cited from earlier work"}, "[7]": {"conditions": "cited from earlier work", "remark": "listed apart in the source"}, "[8]": {"test": "concentrations in blood after I.V. administration and elimination half-life in Beagle dogs", "conditions": "for distribution in blood: in words"}, "[9]": {"test": "pKa by titration and U.V. methods", "conditions": "for pKa of the tertiary amine: titration and U.V. methods, hydrochloride"}, "[10]": {"test": "urinary analysis after parenteral administration", "conditions": "conclusion from urinary recovery, in words"}, "cholinesterase": {"system": "cholinesterase", "test": "in vivo cholinesterase reactivation: protection of mice against phospholine iodide toxicity", "conditions": "DPAM-HCl 50 mg/kg alone, no phospholine iodide, 0.2 cc saline"}}}
{"smiles": "C[n+]1ccccc1C=NO", "values": [{"measurement": "reactivated cholinesterase in the brain", "setting": "[1]", "result": 4, "unit": "%"}, {"measurement": "recovery of consciousness", "setting": "[2]; patients intoxicated by Parathion", "result": "rapid recovery of consciousness"}, {"measurement": "anti-convulsant action", "setting": "[2]; some patients", "result": "significant anti-convulsant action in some patients"}, {"measurement": "protection from the lethal effects of paraoxon", "setting": "[3]", "result": "still protected from the lethal effects of paraoxon"}]}
{"smiles": "C[n+]1ccccc1C=NO.[I-]", "values": [{"measurement": "intravenous dose required to alleviate the toxic effect of a nerve agent", "setting": "[4]; as the iodide", "result": "14 to 28", "unit": "mg/kg"}]}
{"smiles": "C[n+]1ccccc1/C=N/O", "values": [{"measurement": "binding to human serum protein", "setting": "[5]; in words", "result": "not found to be bound appreciably"}, {"measurement": "entry into the erythrocytes", "setting": "[5]; in words", "result": "nor for that matter, to enter the erythrocytes"}, {"measurement": "compound excreted during the first six hours", "setting": "[5]; man, intravenous 15 mg/kg", "result": "Approximately 80%"}, {"measurement": "time in which most of the unchanged oxime was found in the urine", "setting": "[5]; man, intravenous 15 mg/kg", "result": "within the first thirty minutes"}, {"measurement": "crossing of the blood-brain barrier", "setting": "[6]", "result": "some crossing of the blood-brain barrier does occur"}, {"measurement": "amount of absorption into the bloodstream, oral administration", "setting": "[7]", "result": "20 to 30", "unit": "%"}, {"measurement": "distribution in blood", "setting": "[8]; Beagle dogs", "result": "distributed only in the plasma, practically none of the drug being observed in the blood cells or blood proteins"}]}
{"smiles": "CN1CC=CC=C1C=NO.Cl", "values": [{"measurement": "pKa of the oxime moiety", "setting": "[9]; U.V.", "result": "about 10.5"}, {"measurement": "pKa of the tertiary amine", "setting": "[9]; listed as 1-methyl-1,6-dihydropyridine-2-aldoxime hydrochloride", "result": 6.32}, {"measurement": "pKa of the tertiary amine", "setting": "[9]; listed as pro-2-PAM", "result": 6.32}, {"measurement": "metabolism of the pro-drug form", "setting": "[10]", "result": "transferred into 2-PAM without any other significant secondary metabolic pathways"}, {"measurement": "distribution in blood", "setting": "[8]; Beagle dogs", "result": "distributed mainly in the blood cells and blood proteins"}, {"measurement": "amount in blood cells and proteins relative to plasma", "setting": "[8]; DPAM, Beagle dogs", "result": "twice as much"}, {"measurement": "excretion (elimination) half-life (t 1/2), in words", "setting": "[8]; compared with 2-PAM", "result": "substantially increased"}, {"measurement": "SURVIVED", "setting": "cholinesterase", "result": "10/10"}]}
{"smiles": "C[n+]1ccccc1C=NO.[Cl-]", "values": [{"measurement": "corresponding intravenous dose of 2-PAM chloride", "setting": "[4]; as the chloride, calculated from oxime content (1.4 g iodide = 1 g chloride)", "result": "10 to 20", "unit": "mg/kg"}]}
